Drawing on PubChem BioAssay AID624354 (Sanford-Burnham Center for Chemical Genomics, 2012), this text covers inhibition (viability loss, TRAIL sensitization) for 56 molecules.

This is a selection; strong and weak results do not stand in their true shares. The source made the active and inactive calls.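 Rule for the calls: active = compounds causing at least 50% loss of cell viability in the single-dose screen, relative to plate controls; inactive = the rest.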

The assay in a line: viability loss with TRAIL in NB7+C8 cells, primary screen, TRAIL sensitizer project, cell-based, ATPlite luminescence (AID 624354). Particulars: at 10 µM, active compounds read high.
Take `CC(C)c1ccc(OP(=O)(Nc2ccccn2)Oc2ccccc2F)cc1` (stereo unspecified): the inhibition (viability loss, TRAIL sensitization) was inactive: -4.06%.
In the case of `COC(=O)C1(C)COP(=O)(N2CCCCCC2)OC1` (stereo unspecified) it was inactive: -5.01%; in that of `ClCCSc1nnc(-c2cccnc2)o1`, inactive: -1.48%; in that of `O=C(OC1CN2CCC1CC2)c1cccc2[nH]cnc12` (stereo unspecified), inactive: 4.47%.
In the case of `CCN(CC)C(=S)SC(NC=O)C(Cl)(Cl)Cl` (stereo unspecified) it was inactive: -13.7%; in that of `CC(C)NC(=O)NP(=O)(Oc1ccccc1)Oc1ccccc1`, inactive: -3.09%.
In the case of `O=[N+]([O-])c1cc([N+](=O)[O-])c(-c2ccn[nH]2)s1` it was inactive: 3.75%; in that of `CS(=O)(=O)c1cc([N+](=O)[O-])c2no[n+]([O-])c2c1`, inactive: 12.5%; in that of `CCOP1(=S)c2c(C)nn(CCC#N)c2N=C(c2ccccc2F)N1C` (stereo unspecified), inactive: -14.9%.
With `O=P(Nc1nccs1)(c1ccccc1)c1nc2ccccc2s1` (stereo unspecified), the inhibition (viability loss, TRAIL sensitization) is inactive: 12.6%.
Regarding `O=P(Nc1nccs1)(Oc1ccccc1)Oc1ccccc1`, the inhibition (viability loss, TRAIL sensitization) was inactive: -1.68%.
In the case of `O=C(O)COc1ccc([As](=O)(O)O)cc1[N+](=O)[O-]` it was inactive: -10.9%.
For the molecule `Nc1ccccc1[As](=O)(O)c1ccccc1`, the inhibition (viability loss, TRAIL sensitization) is inactive: 4.16%.
With `NC(=O)Nc1ccc([As](=O)(O)O)cc1`, the inhibition (viability loss, TRAIL sensitization) is inactive: -0.695%.
Take `CN(C)C(=O)c1cc([N+](=O)[O-])cc2c1-c1c(cc([N+](=O)[O-])cc1[N+](=O)[O-])C2=O`: the inhibition (viability loss, TRAIL sensitization) is inactive: 49.8%.
For the molecule `O=[N+]([O-])c1ccc2c(c1)nnn2O`, the inhibition (viability loss, TRAIL sensitization) was inactive: -0.262%.
For `CN(C(=O)Cc1ccc(Cl)c(Cl)c1)[C@H]1CC[C@@]2(CCCO2)C[C@@H]1N1CCCC1`, the inhibition (viability loss, TRAIL sensitization) is inactive: 1.49%.
With `N#CCCN(C(=O)COC(=O)C(O)(c1ccccc1)c1ccccc1)c1ccc(F)cc1` the figure was inactive: 1.64%.
As to `CCOP1(=S)c2c(C)nn(CCC#N)c2N=C(c2ccc(F)cc2)N1C` (stereo unspecified), the inhibition (viability loss, TRAIL sensitization) was inactive: 8.14%.
Turning to `CN(C(=O)Cc1ccccc1)[C@@H]1CC[C@]2(CCCO2)C[C@H]1N1CCCC1`, the inhibition (viability loss, TRAIL sensitization) is inactive: -8.38%.
On to `COc1cc(C(=O)NCC2(N3CCOCC3)CCCCC2)cc(Cl)c1OC(C)C`, for which the inhibition (viability loss, TRAIL sensitization) was inactive: -1.2%.
On to `O=[As](O)(O)c1cccnc1`, for which the inhibition (viability loss, TRAIL sensitization) is inactive: 4.31%.
With `CS(=O)(=O)c1ccc(Cl)c(NC(=O)COC(=O)C(O)(c2ccccc2)c2ccccc2)c1` the figure was inactive: -1.34%; with `O=C(OC1CN2CCC1CC2)c1ccc(Cl)cc1` (stereo unspecified), inactive: 0.264%.
As to `O=[As](O)(c1cccc(O)c1)c1cccc(O)c1`, the inhibition (viability loss, TRAIL sensitization) is inactive: -18%.
With `Cc1cccc(OCC(=O)OC2CN3CCC2CC3)c1` (stereo unspecified) the figure was inactive: -4.78%.
With `CCCOP(=S)(Nc1nc(N)cc(=O)[nH]1)OCCC` the figure was inactive: 10.3%; with `Nc1cccc2c([As](=O)(O)O)cccc12`, inactive: -24.6%; with `Cc1ccc(NCCc2c([N+](=O)[O-])cc([N+](=O)[O-])cc2[N+](=O)[O-])cc1`, inactive: 18.6%.
In the case of `COc1cc(C2NCCC3(OCCO3)C2(C)C)cc(OC)c1OC` (stereo unspecified) it was inactive: -3.18%; in that of `CCOP(=O)(Nc1cccc2ccccc12)OCC`, inactive: -4.33%; in that of `CN(CCCl)Cc1cc(Cl)c(NC2=NCCN2)c(Cl)c1`, inactive: -9.29%.
Take `CCOP(=O)(Nc1ccc(C)cn1)OCC`: the inhibition (viability loss, TRAIL sensitization) is inactive: -12.1%.
With `CCC1=CC2Cc3nc4ccc(Cl)cc4c(N)c3C(C1)C2` (stereo unspecified) the figure was inactive: 11%.
In the case of `O=P1(Nc2ccccn2)COc2ccccc2OC1` it was inactive: -27.4%; in that of `CCOP(=O)(NC(=NC(C)c1ccccc1)NC(C)c1ccccc1)OCC` (stereo unspecified), inactive: 7.14%.
With `Clc1n[nH]nc1-c1nn[nH][15n]1` the figure was inactive: -3.68%; with `O=P1(N(CCCl)CCCl)NCCC(C(F)(F)F)O1` (stereo unspecified), inactive: -15.1%.
As to `CC(C)(C)C(=O)NC(Sc1ncccn1)C(Cl)(Cl)Cl` (stereo unspecified), the inhibition (viability loss, TRAIL sensitization) was inactive: 4.99%.
In the case of `COc1ccccc1CNC(=O)COC(=O)C(O)(c1ccccc1)c1ccccc1` it was inactive: 4.91%; in that of `CC1(CBr)Cn2c(nc3ccccc3c2=O)S1` (stereo unspecified), inactive: 0.677%.
As to `CN(C(=O)Cc1ccc(Cl)c(Cl)c1)[C@@H]1CCCC[C@H]1N1CCCC1`, the inhibition (viability loss, TRAIL sensitization) was inactive: 3.8%.
`CC(C)/C=N\N=C(\N)N[N+](=O)[O-]`: the inhibition (viability loss, TRAIL sensitization) was inactive: -9.1%.
In the case of `Cc1nn(-c2ccccc2)c2c1P(=O)(N1CCOCC1)N(C)C(c1ccccc1)=N2` (stereo unspecified), the inhibition (viability loss, TRAIL sensitization) was inactive: -2.93%.
With `Cc1ccc(C(=O)OC2CN3CCC2CC3)cc1` (stereo unspecified) the figure was inactive: 6.35%; with `CC1CCC(C(C)C)C(OP(=O)(Nc2ccccn2)c2ccccc2)C1` (stereo unspecified), inactive: 5.8%; with `O=C(/C=C/c1ccccc1)OC1CN2CCC1CC2` (stereo unspecified), inactive: 33%.
`CCCC1OP(=O)(Nc2ccccc2)OCC1CC` (stereo unspecified): the inhibition (viability loss, TRAIL sensitization) is inactive: -10.1%.
In the case of `CN(C)C1(CNC(=O)c2ccc(S(C)(=O)=O)cc2)CCCCC1` it was inactive: 1.46%.
`O=P1(Nc2ncccn2)COc2ccccc2OC1`: the inhibition (viability loss, TRAIL sensitization) is inactive: -6.56%.
`Cc1ccc(S(=O)(=O)N(CCCN)CCCc2c(C)nc(N)[nH]c2=O)cc1`: the inhibition (viability loss, TRAIL sensitization) is inactive: -1.23%.
In the case of `NS(=O)(=O)c1cccc(NC(=O)COC(=O)C(O)(c2ccccc2)c2ccccc2)c1` it was inactive: 12.4%; in that of `O=P1(Nc2ccc(Br)cn2)COc2ccccc2OC1`, inactive: -7.97%.
With `O=[As](O)(c1cccs1)c1cccs1` the figure was inactive: -7.39%; with `Cc1ccc(OCC(=O)OC2CN3CCC2CC3)cc1` (stereo unspecified), inactive: -9.71%; with `Nc1cccc([As](=O)(O)c2ccccc2)c1`, inactive: 0.173%.
